{"source": "patent US9743675B2", "about": "“Antimicrobial composition” (UNIVERSITY OF SURREY, priority 2009, dated 2017)", "tested_on": "Salmonella enteritidis", "experiment": "perlite bio-assay with pure DHAA and vanillin (Example 7)", "format": "cell-based", "details": "DHAA (10 μl of 20 mM) if +DA", "protocol": "Also, one 20 mM stock solution of DHAA was made in acetone. Bioassay test: The test was carried out using 1.5 ml Eppendorf tubes containing 10 mg of fine perlite. Ten μl of each concentration of vanillin was dispensed into four Eppendorf tubes to obtain four replicates of each concentration. Two of these received 10 μl of DHAA. The tubes were left in laminar flow chamber for 3 h to allow evaporation of the acetone. […] To keep the perlite moist during incubation, 10 μl of sterile R.O water was dispensed into each tube. As controls, two tubes received DHAA only and two tubes received R.O water only. The tubes were incubated overnight, and bacterial survival was quantified by plating the content of each tube onto nutrient agar for the bacterial count.", "data": [{"smiles": "COc1cc(C=O)ccc1O", "note": "[Vanillin, 4-hydroxy-3-methoxybenzaldehyde]", "values": [{"measurement": "Salmonella enteritidis count", "setting": "vanillin 0.625 mM", "result": "TMTC"}, {"measurement": "Salmonella enteritidis count", "setting": "vanillin 1.25 mM", "result": "TMTC"}]}]}
